Data from PMC3917506.

Molecular target: Venus-IQGAP1 (human) (UniProt P46940)
Experiment: FRET or BRET

Q: “CFP-Rac1 (from UniProt P63000 1-192) (natural protein; other documents disagree on this pair)” was tested. Which FRET efficiency E% at low D:A ratios (regression line) did it give?
A: 25%

Q: And the average FRET efficiency E%?
A: 23%
